Source: PubChem BioAssay AID485364 (National Center for Advancing Translational Sciences (NCATS), 2010)
The list shows a part of the results, in another mix than the full data. Active and inactive are the calls of the source. Calls follow the shape of the dose curve; as a rule, active = well fitted inhibition curve with a large enough effect; inconclusive = small, poorly fitted or top-dose-only effect; inactive = no such curve, though single readings can be large or run the other way.

target: Schistosoma mansoni thioredoxin glutathione reductase (TGR) (UniProt Q962Y6); assay: qHTS Assay for the Inhibitors of Schistosoma Mansoni Peroxiredoxins; conditions: purified TGR, DTNB reduction, TNB absorbance 405 nm; series mostly up to 114 µM; activity change, negative = inhibition: at the top concentration; also: nearly all actives have a fitted effect of over 60% in size
From the text: Schistosomiasis is a major neglected tropical disease that currently affects over 200 million. It is caused by different species of flatworms, such as Schistosoma mansoni. Over the last century, drugs to treat the disease have evolved from potassium antimonyl tartrate, artemisinin, oxamniquine, to praziquantel, with praziquantel remaining the universally-used single drug of choice over the past three decades. However, transmission rates have changed little with praziquantel, and there is evidence for the development of drug resistant parasites. Because there is currently no suitable alternative therapy available, there is an urgent need to identify new targets and drugs for schistosomiasis treatment. Thioredoxin glutathione reductase (TGR), one uniquely positioned S. mansoni enzyme, has been identified as a major component of the worms' distinct and compressed antioxidant "firewall". TGR is a multifunctional enzyme that catalyzes the interconversion between reduced and oxidized forms of both glutathione (GSH) and thioredoxins, thus making it an attractive new antiparasitic target. Recently, a quantitative high-throughput screen of the NIH Molecular Libraries Small Molecule Repository (MLSMR, ~71K at the time of the screen in 2007) was performed using an assay that targeted both TGR and peroxiredoxin2 (Prx2, an H2O2-reducing enzymatic component of the S. mansoni redox "firewall") by following the decrease of NADPH fluorescence. […] Additional mechanistic link between exogenous NO donation and parasitic injury for the oxadiazole-2-oxide class of compounds was also expanded and better defined. Although the screen addressed both TGR and Prx2, the assay required post-screen target deconvolution for further characterization of the actives. In addition, the fluorescence assay was also subject to fluorescence interference from compound library members. We have developed a 1536-well-based kinetic HTS assay to address TGR alone. The assay followed the reduction of 5, 5'-dithiobis (2-nitrobenzoic acid) (DTNB) (Ellman's reagent) by NADPH and measured the increase in absorbance at 412 nm of the reaction product, TNB. […] This assay format can be used to screen the current MLSMR collection (with >300K compounds available) to find novel TGR inhibitors. Furoxan is a good choice to serve as a positive control in the primary HTS assay.
Three microliters of reagents (100 uM NADPH and 20 nM TGR or 100 uM NADPH as no-enzyme control) were dispensed into 1,536-well black clear-bottomed plates. Compounds (23 nL) were transferred via Kalypsys pin tool equipped with 1536-pin array (10 nL slotted pins, V&P Scientific, San Diego, CA). The plates were then be incubated for 15 min at room temperature, and 1 uL aliquot of 500 uM NADPH were added, immediately followed by a 1 uL aliquot of 15 mM DTNB to start the reaction. The plate was transferred to a ViewLux high-throughput CCD imager (Perkin-Elmer, Wellesley, MA) where kinetic measurements of the TNB absorbance were acquired using a 405 excitation filter. Throughout the screen, reagent bottles and all liquid lines were made light-tight to minimize reagent degradation. All screening operations were performed on a fully integrated robotic system (Kalypsys, San Diego, CA) containing one RX-130 and two RX-90 anthropomorphic robotic arms (Staubli, Duncan, SC). Library plates were screened starting from the lowest and proceeding to the highest concentration, and a "double-dipping" step of the highest concentration was required to access higher concentrations of compounds. Vehicle-only plates, with DMSO being pin-transferred to the entire column 5-48 compound area, were inserted uniformly at the beginning and the end of each library in order to monitor for and record any shifts in the background, which can be affected by reagent dispensers or loss in enzyme activity overtime. […]
% is scaled to controls: 0 for no effect and ±100 for the full control effect; potency is read from the fitted curve at half-maximal effect.

| Compound | activity change, negative = inhibition | Potency |
| --- | --- | --- |
| CN1CCCCC1COC(=O)C1(O)c2ccccc2CCc2ccccc21 (stereo not given) | inactive: -2.5% | – |
| COc1ccccc1OP(C)(=O)Nc1c(C)cccc1C (stereo not given) | inactive: -27% | – |
| CP(=O)(Nc1ccc(SC(F)(F)F)cc1)Oc1ccccc1 (stereo not given) | inactive: -0.758% | – |
| CCCOc1ccc(NP(C)(=O)Oc2ccc(Cl)cc2)cc1 (stereo not given) | inactive: 8.91% | – |
| O=[N+]([O-])c1cc([N+](=O)[O-])c(Nc2nnnn2CCO)c([N+](=O)[O-])c1 | inactive: -14.1% | – |
| CC1=C2N=C(C=C3N=C(C(C)=C4[N-][C@@](C)([C@@H]5N=C1[C@](C)(CCC(=O)NC[C@@H](C)OP(=O)([O-])O[C@H]1[C@@H](O)[C@@H](n6cnc7cc(C)c(C)cc76)O[C@@H]1CO)[C@H]5CC(N)=O)[C@@](C)(CC(N)=O)[C@@H]4CCC(N)=O)[C@@](C)(CC(N)=O)[C@@H]3CCC(N)=O)C(C)(C)[C@@H]2CCC(N)=O.[C-]#N.[Co+3] | inactive: 2.43% | – |
| Cc1nc2ccc3ccccc3c2s1.O=[N+]([O-])c1cc([N+](=O)[O-])c(O)c([N+](=O)[O-])c1 | inactive: -29% | – |
| CP(=O)(Nc1cccc(Br)c1)Oc1ccccc1 (stereo not given) | inactive: 0.262% | – |
| Cc1cc(C)cc(OP(C)(=O)Nc2ccccn2)c1 (stereo not given) | inactive: 2.73% | – |
| Cc1ccc(C)c(NP(C)(=O)Oc2ccccc2)c1 (stereo not given) | inactive: 12% | – |
| COc1ccccc1OP(C)(=O)Nc1cccc(Br)c1 (stereo not given) | inactive: 28.8% | – |
| Cc1cc(C)cc(OP(C)(=O)Nc2ccc(C)cc2C)c1 (stereo not given) | inactive: -16.9% | – |
| CCOC(=O)c1ccc(NP(C)(=O)Oc2cc(C)cc(C)c2)cc1 (stereo not given) | inactive: -10.7% | – |
| CC1=NCCc2c1[nH]c1ccccc21.O=[N+]([O-])c1cc([N+](=O)[O-])c(O)c([N+](=O)[O-])c1 | inactive: -8.13% | – |
| CCOC(=O)c1ccc(NP(C)(=O)Oc2ccccc2)cc1 (stereo not given) | inactive: 2.52% | – |
| Cc1ccc(NP(C)(=O)Oc2ccccc2)c(C)c1 (stereo not given) | inactive: 1.76% | – |
| COc1ccccc1OP(C)(=O)Nc1ccc(C)cc1 (stereo not given) | inactive: 0% | – |
| COc1ccc(OP(C)(=O)Nc2cccc(F)c2)cc1 (stereo not given) | inactive: 8.31% | – |
| COc1ccccc1OP(C)(=O)Nc1cc(Cl)ccc1C (stereo not given) | inactive: -0.473% | – |
| Cc1cc(C)cc(OP(C)(N)=O)c1 (stereo not given) | inactive: 9.48% | – |
| O=[N+]([O-])c1cc([N+](=O)[O-])c(Nc2cccnc2)c([N+](=O)[O-])c1 | – | active: 35.5 µM |
| Cc1cccc(C)c1OP(C)(N)=O (stereo not given) | inactive: -1.69% | – |
| CC(C)(C)c1ccc(OP(C)(=O)Nc2ccc(SC(F)(F)F)cc2)cc1 (stereo not given) | inactive: -14.1% | – |
| O=[N+]([O-])c1ccc2c(c1)C=Nc1ccccc1O2 | inactive: 1.23% | – |
| CCN(CC)CCCOC(=O)C(O)(c1ccccc1)c1ccccc1 | inactive: 2.08% | – |
| CCOP(C)(=S)SCC(=O)NC(C)C(=O)O (stereo not given) | inactive: -18.9% | – |
| CCOC(=O)c1ccc(NP(C)(=O)Oc2ccc(OC)cc2)cc1 (stereo not given) | inactive: -0.992% | – |

| Compound | activity change, negative = inhibition | Potency |
| --- | --- | --- |
| CP(=O)(Nc1ccccn1)Oc1ccc(Cl)cc1 (stereo not given) | inactive: -2.7% | – |
| CP(=O)(Oc1ccccc1)OC(c1ccccc1)C(F)(F)F (stereo not given) | inactive: -2.45% | – |
| CP(=O)(Nc1ccc(SC(F)(F)F)cc1)Oc1ccc(Cl)cc1 (stereo not given) | inactive: 2.19% | – |
| Cc1cccc(C)c1OP(C)(=O)Nc1ccc(SC(F)(F)F)cc1 (stereo not given) | inactive: -1.11% | – |
| Cc1cc(C)cc(OP(C)(=O)Nc2ccc(SC(F)(F)F)cc2)c1 (stereo not given) | inactive: -17% | – |
| CCc1ccc(OP(C)(=O)N2CCN(c3ccc([N+](=O)[O-])cc3)CC2)cc1 (stereo not given) | inactive: 1.56% | – |
| CP(=O)(NC(=O)Nc1ccccc1)Oc1ccccc1 (stereo not given) | inactive: 4.19% | – |
| CP(=S)(Nn1cnnc1)Oc1ccccc1 (stereo not given) | inactive: 0.688% | – |
| COc1ccccc1OP(C)(=O)Nc1ccccc1 (stereo not given) | inactive: 4.68% | – |
| CP(=O)(Nc1ccccc1Br)Oc1ccccc1 (stereo not given) | inactive: 4.58% | – |
| CP(=O)(OC12CC3CC(CC(C3)C1)C2)OC12CC3CC(CC(C3)C1)C2 | inactive: -1.92% | – |
| CCOC(=O)c1ccc(NP(C)(=O)Oc2ccc(Cl)cc2)cc1 (stereo not given) | inactive: -19.7% | – |
| CP(=O)(Nc1ccc(Cl)cc1)Oc1ccc(F)cc1 (stereo not given) | inactive: -1.38% | – |
| CC(C)(C)c1ccc(OP(C)(=O)O)cc1 | inactive: -8.91% | – |
| COc1ccccc1OP(C)(=O)Nc1ccccc1Br (stereo not given) | inactive: 4.1% | – |
| CN(C)C(=O)c1c([N+](=O)[O-])cc([N+](=O)[O-])cc1[N+](=O)[O-] | inactive: 2.63% | – |
| COc1ccc(OP(C)(=O)Nc2ccc(Br)cc2)cc1 (stereo not given) | inactive: -4.6% | – |
| CCN(CC)CC(O)COC(=O)C(O)(c1ccccc1)C1CCCCC1 (stereo not given) | inactive: -24.7% | – |
| CCc1ccc(OP(C)(=O)Nc2cccnc2)cc1 (stereo not given) | inactive: -3.25% | – |
| CP(=O)(Oc1ccccc1)N1CCOC1=O (stereo not given) | inactive: 14.2% | – |
| O=C(OCCCN1CCCC1)C(O)(c1ccccc1)C1CCCCC1 (stereo not given) | inactive: -1.14% | – |
| COc1ccccc1OP(C)(=O)Nc1c(C)n(C)n(-c2ccccc2)c1=O (stereo not given) | inactive: -0.068% | – |
| O=[N+]([O-])c1cc([N+](=O)[O-])c(Nc2ccccn2)c([N+](=O)[O-])c1 | inactive: 2.69% | – |
| Cc1c(NP(C)(=O)Oc2ccc(C(C)C)cc2)c(=O)n(-c2ccccc2)n1C (stereo not given) | inactive: -3.59% | – |
| CCc1ccc(OP(C)(=O)O)cc1 | inactive: -19.2% | – |
| COc1ccccc1OP(C)(=O)Nc1ccc(C)cc1C (stereo not given) | inactive: 41.3% | – |
| CP(=O)(Nc1ccccn1)Oc1ccccc1 (stereo not given) | inactive: -12.4% | – |

| Compound | activity change, negative = inhibition | Potency |
| --- | --- | --- |
| COc1ccccc1OP(C)(=O)Nc1ccc(Br)cc1 (stereo not given) | inactive: 2.6% | – |
| CN(C)CCOC(=O)C(O)(c1ccccc1)C1CCCC1 (stereo not given) | inactive: -4.08% | – |
| COc1ccc(OP(C)(=O)Nc2ccccn2)cc1 (stereo not given) | inactive: 10.6% | – |
| Cc1nc2ccc3ccccc3c2o1.O=[N+]([O-])c1cc([N+](=O)[O-])c(O)c([N+](=O)[O-])c1 | inactive: -17.7% | – |
| CP(=O)(OCCOc1ccccc1)OCCOc1ccccc1 | inactive: 15.9% | – |
| CP(=O)(Nc1ccc(Cl)cc1Cl)Oc1ccccc1 (stereo not given) | inactive: 9.9% | – |
| Cc1cc(C)cc(OP(C)(=O)Nc2cccc(C(F)(F)F)c2)c1 (stereo not given) | inactive: -34.4% | – |
| COc1ccc(OP(C)(=O)Nc2ccccc2Br)cc1 (stereo not given) | inactive: -4.37% | – |
| COc1ccccc1OP(C)(=O)Nc1ccc(C)c(C)c1 (stereo not given) | inactive: 0% | – |
| CCN(CC)CCCOC(=O)C(O)(c1ccccc1)C1CCCCC1 (stereo not given) | inactive: -0.196% | – |
| CCCCCOc1ccc(NP(C)(=O)Oc2ccc(Cl)cc2Cl)cc1 (stereo not given) | inactive: -12.3% | – |
| CP(=O)(Nc1ccccc1)Oc1ccc(F)cc1 (stereo not given) | inactive: -0.452% | – |
| COc1ccc(OP(C)(=O)Nc2ccc(SC(F)(F)F)cc2)cc1 (stereo not given) | inactive: -5.82% | – |
| CCOC(=O)c1ccc(NP(C)(=O)Oc2ccc(F)cc2)cc1 (stereo not given) | inactive: 5.64% | – |
| O=C(OCCN1CCN(CCOCc2ccccc2)CC1)C(O)(c1ccccc1)c1ccccc1 | inactive: -6.17% | – |
| CC(C)c1ccc(OP(C)(=O)Nc2ccc(SC(F)(F)F)cc2)cc1 (stereo not given) | inactive: -21.5% | – |
| CP(=O)(Nc1ccccc1F)Oc1ccccc1 (stereo not given) | inactive: -7.19% | – |
| CP(=O)(Nc1ccc2c(c1)OCCO2)Oc1ccccc1 (stereo not given) | inactive: -19.9% | – |
| Cc1ccccc1NP(C)(=O)Nc1ccccc1C | inactive: -5.35% | – |
| CP(=O)(Nc1ccc(SC(F)(F)F)cc1)Oc1ccc(F)cc1 (stereo not given) | inactive: 4.54% | – |
| CCOP(C)(=S)SCC(=O)NC(C)(CC)C(=O)O (stereo not given) | inactive: -3.22% | – |
| Cc1cc(-c2cccc3ccccc23)c(C)cn1.O=[N+]([O-])c1cc([N+](=O)[O-])c(O)c([N+](=O)[O-])c1 | inactive: -10.9% | – |
| O=[N+]([O-])c1ccc(OP2(=O)COCCO2)cc1 (stereo not given) | inactive: 13.6% | – |
| COc1ccc(OP(C)(=O)Nc2cccc(Br)c2)cc1 (stereo not given) | inactive: -2.27% | – |
| COc1ccc(NP(C)(=O)Oc2ccccc2OC)cc1 (stereo not given) | inactive: 9.67% | – |
| CN(C)CCOC(=O)C(O)(c1ccccc1)C1CCCCC1 (stereo not given) | inactive: 1.05% | – |
